Values of other authors in patent publication US5124314A, “Pharmaceutical compositions containing amylin” (Amylin Pharmaceuticals, Inc., priority 1987, dated 1992).

How the values were obtained:
islet B cells = conditions: a number of model systems
rats = conditions: administered to rats

For “CGRP: calcitonin gene related peptide, structurally similar to amylin (46% identity with human CGRP-2) (ACDTATCVTHRLAGLLSRSGGVVKNNFVPTNVGSKAF; Calcitonin gene-related peptide 1; UniProt P06881 83-119, looked up)”, the “rate of glucose induced insulin secretion” value (islet B cells) is given as “modulate the rate of glucose induced insulin secretion”, the “effect on blood catecholamine levels” value (rats) is given as “significant effects” and the “effect on blood pressure” value (rats) is given as “significant effects”.
